Test results from US9359342B2, “Protein disulfide isomerase inhibiting anticancer agents” (THE CLEVELAND CLINIC FOUNDATION, priority 2013, dated 2016).

Amino acid sequences for entries named in this document (tags omitted). Residues count along the entry.
UniProt P07237, 18-508 limits assumed: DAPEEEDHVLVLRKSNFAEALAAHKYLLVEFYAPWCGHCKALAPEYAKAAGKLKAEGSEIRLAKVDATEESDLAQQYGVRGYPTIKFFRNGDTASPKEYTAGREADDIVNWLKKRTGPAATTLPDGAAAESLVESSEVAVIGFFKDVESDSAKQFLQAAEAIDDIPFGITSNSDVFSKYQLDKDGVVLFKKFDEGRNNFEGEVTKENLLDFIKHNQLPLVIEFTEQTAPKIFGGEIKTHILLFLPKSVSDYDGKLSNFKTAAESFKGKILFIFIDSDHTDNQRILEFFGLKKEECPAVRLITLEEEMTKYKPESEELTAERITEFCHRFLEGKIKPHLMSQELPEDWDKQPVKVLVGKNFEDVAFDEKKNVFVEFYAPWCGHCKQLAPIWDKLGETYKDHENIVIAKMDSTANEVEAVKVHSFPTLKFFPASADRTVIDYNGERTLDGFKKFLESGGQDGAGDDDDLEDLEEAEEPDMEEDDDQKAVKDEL

What was measured:
[1] = system: MM1.S; assay: MM1.S myeloma cell viability
[2] = molecular target: recombinant PDI (Homo sapiens, UniProt P07237); assay: PDI activity assay (di-eosin-di-gluthathione, eGSSG)
Procedure: PDI activity assay: The di-eosin-di-gluthathione assay was performed essentially as described (Raturi, A. and Mutus, B Free Radical Biology & Medicine 43; 2007) with the minor modification that we used gluthathione instead of DTT as reducing agent. Briefly, recombinant PDI was incubated with CC642 or analogs in potassium-based assay buffer at 37° C. before reactions were started by addition of gluthathione and di-eosin-di-gluthathione. Release of eosin was measured every 60 seconds for 30 min using excitation/emission filters of 525 nm/545 nm, respectively.
Next, MM1.S cells were treated with B-CCF642 and purified lysates of treated and untreated cells for B-CCF642 binding proteins using streptavidin beads followed by SDS-PAGE and mass spectroscopy for protein sequencing of a band that contained biotin signal. Among 10 proteins that were only recovered from treated cells PDI was the most abundant but HSP70 family members were also recovered. To test whether HSP70 family members were inhibited by CCF642, chaperone assays were performed that tested rearrangement of partially denatured luciferase. […] However, PDI function, as assessed by the eGSSG assay which measures PDI's reducing capacity, was inhibited by CCF642 (table 1). […] To determine whether PDI activity is inhibited in vivo, the inventors performed IRE1-α immunoblots after CCF642 treatment of MM1.S cells. […]

- IC50 ([1]; read-out: MM1.S IC50, MM1.S myeloma cells): 1.13 µM
- PDI Activity at 10 μM (%) ([2]; compound at 10 μM): 23.33%
- IC50 ([2]; read-out: PDI IC50, recombinant PDI, di-eosin-di-gluthathione assay): 6.62 µM
Compound: COCCOCCOCCN1C(=O)/C(=C/c2ccc([N+](=O)[O-])s2)SC1=S
- MM1.S Viable cells at 6.75 μM (%) ([1]; compound at 6.75 μM): 12.63%
